Literature values in article PMC3933250 (Annals of Oncology, 2014).

Tested on: R/M-SCCHN
Conditions: cetuximab added to platinum/5-FU, first-line R/M-SCCHN; cited from earlier work

Cetuximab
Improvement of median overall survival (OS) versus chemotherapy alone: 2.7 months
